Data as given in ChEMBL document CHEMBL1938260.
Active and inactive are the calls of the source. The rule behind the calls is not given here.

Chains of the proteins cited; added tags and fusions are not shown. Lines headed by an entry give the natural chain unless they say otherwise; changes in a name come on top.
UniProt P41145: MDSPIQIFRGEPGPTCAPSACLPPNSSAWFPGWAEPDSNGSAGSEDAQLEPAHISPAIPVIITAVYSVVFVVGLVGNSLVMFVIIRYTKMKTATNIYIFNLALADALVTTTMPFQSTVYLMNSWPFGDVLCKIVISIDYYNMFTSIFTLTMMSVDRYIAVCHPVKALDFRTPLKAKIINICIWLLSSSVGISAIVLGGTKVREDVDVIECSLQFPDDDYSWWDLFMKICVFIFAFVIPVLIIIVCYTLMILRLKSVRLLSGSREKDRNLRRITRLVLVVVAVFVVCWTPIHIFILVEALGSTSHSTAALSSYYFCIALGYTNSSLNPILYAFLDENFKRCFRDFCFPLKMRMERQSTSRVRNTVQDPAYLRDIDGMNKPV
UniProt P32300, whole entry, looked up: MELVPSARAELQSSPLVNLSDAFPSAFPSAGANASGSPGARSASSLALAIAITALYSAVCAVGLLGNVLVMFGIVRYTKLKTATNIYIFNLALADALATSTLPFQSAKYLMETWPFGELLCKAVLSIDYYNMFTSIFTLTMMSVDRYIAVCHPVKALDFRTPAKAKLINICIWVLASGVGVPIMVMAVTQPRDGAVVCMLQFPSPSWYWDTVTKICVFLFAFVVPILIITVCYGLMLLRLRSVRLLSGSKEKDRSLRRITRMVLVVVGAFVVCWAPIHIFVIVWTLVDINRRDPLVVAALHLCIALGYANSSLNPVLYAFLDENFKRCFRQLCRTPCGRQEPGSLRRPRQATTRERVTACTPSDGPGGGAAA
UniProt P33535, whole entry, looked up: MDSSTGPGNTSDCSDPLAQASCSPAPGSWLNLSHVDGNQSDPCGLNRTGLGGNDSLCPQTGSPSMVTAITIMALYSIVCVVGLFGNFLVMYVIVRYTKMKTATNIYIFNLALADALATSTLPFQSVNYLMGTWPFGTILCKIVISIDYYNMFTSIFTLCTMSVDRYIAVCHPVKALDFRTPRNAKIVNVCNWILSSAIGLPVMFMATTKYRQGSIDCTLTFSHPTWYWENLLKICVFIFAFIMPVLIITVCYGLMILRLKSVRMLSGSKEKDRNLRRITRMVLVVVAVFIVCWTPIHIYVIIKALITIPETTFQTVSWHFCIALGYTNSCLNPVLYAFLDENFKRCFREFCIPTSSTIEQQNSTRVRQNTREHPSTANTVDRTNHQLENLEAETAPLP

Columns and labels:
[1] = molecular target: Kappa-type opioid receptor (Homo sapiens) (UniProt P41145); test: Agonist activity at KOPR expressed in human U2OS cells co-expressing GFP-tagged beta-arrestin2 assessed as translocation of GFP-tagged beta-arrestin2 at 10 uM incubated 120 mins in serum deprived medium prior drug addition measured after 10 mins by confocal microscopy
[2] = molecular target: Delta-type opioid receptor (Mus musculus) (UniProt P32300); test: Displacement of [3H]diprenorphine from mouse DOPR expressed in CHO cells at 3 uM
[3] = molecular target: Kappa-type opioid receptor (Homo sapiens) (UniProt P41145); test: Agonist activity at human KOPR expressed in CHO cells assessed as [35S]GTPgammaS binding at 3 uM after 60 mins by liquid scintillation counting relative to U50,488H
[4] = molecular target: Mu-type opioid receptor (Rattus norvegicus) (UniProt P33535); test: Displacement of [3H]diprenorphine from rat MOPR expressed in CHO cells at 3 uM
[5] = molecular target: Kappa-type opioid receptor (Homo sapiens) (UniProt P41145); test: Agonist activity at human KOPR expressed in CHO cells assessed as [35S]GTPgammaS binding after 60 mins by liquid scintillation counting relative to U50,488H
[6] = molecular target: Kappa-type opioid receptor (Homo sapiens) (UniProt P41145); test: Agonist activity at human KOPR expressed in U2OS cells assessed as beta-arrestin2 recruitment after 90 mins by DiscoveRx PathHunter assay relative to salvA
[7] = molecular target: Kappa-type opioid receptor (Homo sapiens) (UniProt P41145); test: Ratio of EC50 for agonist activity at human KOPR expressed in U2OS cells assessed as beta-arrestin2 recruitment to EC50 for agonist activity at human KOPR expressed in CHO cells assessed as [35S]GTPgammaS binding

| Compound | Activity [1] | Activity [2] | Emax [3] [%] | inhibition [4] [%] | Emax [5] [%] | Emax [6] [%] | Ratio EC50 [7] |
| --- | --- | --- | --- | --- | --- | --- | --- |
| COC(=O)[C@@H]1C[C@H](OC(C)=O)C(=O)[C@H]2[C@@]1(C)CC[C@H]1C(=O)O[C@@H](c3ccoc3)C[C@]21C | Active | inactive |  |  |  |  |  |
| COCO[C@H]1C[C@@H](C(=O)OC)[C@]2(C)CC[C@H]3C(=O)O[C@@H](c4ccoc4)C[C@]3(C)[C@H]2C1=O |  | inactive | 100 | < 50 |  |  |  |
| COC(=O)[C@@H]1C[C@H](OC(C)=O)C(=O)[C@H]2[C@@]1(C)CC[C@H]1C(=O)O[C@H](c3ccoc3)C[C@]21C | Active |  |  | < 50 |  |  |  |
| COC(=O)[C@@H]1C[C@H](O)C(=O)[C@H]2[C@@]1(C)CC[C@H]1C(=O)O[C@@H](c3ccoc3)C[C@]21C |  | inactive | 100 | < 50 |  |  |  |
| CN(C(=O)Cc1ccc(Cl)c(Cl)c1)C1CCCCC1N1CCCC1 (stereo unspecified) |  |  |  | < 50 |  |  |  |
| COC(=O)[C@@H]1C[C@H](OC(C)=O)C(=O)[C@H]2[C@@]1(C)CC[C@H]1C(=O)O[C@@H](c3ccoc3Br)C[C@]21C |  | inactive |  | < 50 |  |  |  |
| CCOCO[C@H]1C[C@@H](C(=O)OC)[C@]2(C)CC[C@H]3C(=O)O[C@@H](c4ccoc4)C[C@]3(C)[C@H]2C1=O | Active | inactive |  | < 50 | 103 | 127 | 3 |
| COC(=O)[C@@H]1C[C@H](OC(C)=O)C(=O)[C@H]2[C@@]1(C)CC[C@H]1C(=O)O[C@@H](c3cc(Br)oc3Br)C[C@]21C |  | inactive | 100 |  |  |  |  |
